Data on 20 molecules can be found in US20050164945A1 (published 2005).

T1: recombinant endotheliase 1 (human, UniProt Q9UL52 192-423, limits assumed)
T1 construct: also called ET1; rET1
T1 sequence: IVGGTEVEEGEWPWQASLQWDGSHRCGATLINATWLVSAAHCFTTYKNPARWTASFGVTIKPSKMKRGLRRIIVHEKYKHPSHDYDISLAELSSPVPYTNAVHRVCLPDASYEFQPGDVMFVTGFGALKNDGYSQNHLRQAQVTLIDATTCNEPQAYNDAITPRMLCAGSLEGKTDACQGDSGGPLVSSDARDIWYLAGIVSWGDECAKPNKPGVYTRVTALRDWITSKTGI

For one experiment, the target named is T1, recombinant endotheliase 1. The experiment in a line: inhibition of ET1 activity.
As for AGHWQCKGYAPDCEPWGT (synthetic peptide) [DX-1104], the Ki stood at 126 nM.

For the next experiment, the target named is T1, recombinant endotheliase 1. Description: inhibition of ET1 activity. The source holds these as a separate data set.
Consider AGKMRCLSRDLPCVTHGTY (synthetic peptide) [DX-1106], for which the Ki stood at 73.6 nM.

In another experiment the target is T1, recombinant endotheliase 1. The experiment in a line: apparent Ki, inhibition of ET1, uncorrected for substrate.
As to AGKMRCISRDIPCTVKSGGTY [DX-1632], the Ki was 15.8 nM.
On the same count and under the same terms, to AGKMRCLSRDIPCVNFRLGT [DX-1634] belongs 19.3 nM.
As to AGGWRYPCKGFYPDCGYPGT [DX-1638], the Ki came to 126 nM.
The same measure, in the same setting: the value for AGRAGWRCKGYYPDCGYPGT [DX-1642] was 11.6 nM.
As to AGNTGWRCKGYYPDCGYPGT [DX-1639], the Ki came out at 28 nM.
Same read-out and setting: the value for AGRASWRCKGYYPDCGYPGT [DX-1640] was 29 nM; that for AGSSGWRCKGYYPDCGYPGT [DX-1644] was 8.6 nM.
Consider AGKMRCISRDIPCTVFQEGT [DX-1635], for which the Ki amounted to 8.5 nM.
On to AGKMRCLSRDIPCSIHQKGTY [DX-1633], for which the Ki came to 26.4 nM.
For AGMARVKCISRDIPCVTHGTY [DX-1631], the Ki came to 13.1 nM.
Consider AGKHICRGYYPDCVWQTFGT [DX-1647], for which the Ki was found to be 12.7 nM.
AGKHICRGFYPDCVWQTFGT [DX-1649]: the Ki is 22.1 nM.
As for AGKHICRGFYPDCVWQTWGT [DX-1645], the Ki turned out to be 15.6 nM.
As to AGKHICRGYYPDCIWQFAGT [DX-1648], the Ki is 19.8 nM.
Take AGQLGWKCKGYYPDCGYPGT [DX-1643]: the Ki stood at 25.6 nM.
With AGKMRCISRDIPCTTRVAGTY [DX-1636], the Ki stood at 11.3 nM.
AGSGRRFCISRDIPCVTHGT [DX-1630]: the Ki turned out to be 128 nM.
AGRETWVCKGYYPDCGYPGT [DX-1641]: the Ki was 34.6 nM.
